# In PubChem BioAssay AID602346 (Broad Institute, 2012):
# The entries are a selection whose mix differs from that of the whole data set. Some salts or complexes appear as unconnected parts, following the source record. Active and inactive are the calls of the source. No stated cut-off is given here; in the data, active means inhibition above about 50% (passing the limit was not always enough); inconclusive means no clear call, values can overlap the other calls; inactive means below about 31%.
# Assay: HIV Vif self-association inhibitors, primary screen, imaging, HEK293T, single point (AID 602346)
# Settings: HEK293T cells, Vif self-association by quenched fluorescence, 24 h, at 7.49 µM, stronger effect = higher value
row,Structure (SMILES),inhibition
1,CP(=O)(Nc1ccc(Cl)cc1)Oc1ccc(F)cc1 (stereo not given),inactive: -4.57%
2,CN(C)C(=O)c1c([N+](=O)[O-])cc([N+](=O)[O-])cc1[N+](=O)[O-],inactive: -5.23%
3,CCN(CC)CC(O)COC(=O)C(O)(c1ccccc1)C1CCCCC1 (stereo not given),inactive: 2.19%
4,COc1ccc(OP(C)(=O)Nc2ccc(Br)cc2)cc1 (stereo not given),inactive: -6.13%
5,O=C(OCCCN1CCCC1)C(O)(c1ccccc1)C1CCCCC1 (stereo not given),inactive: -0.27%
6,CP(=O)(Oc1ccccc1)N1CCOC1=O (stereo not given),inactive: -8.53%
7,CCc1ccc(OP(C)(=O)Nc2cccnc2)cc1 (stereo not given),inactive: 1.49%
8,CCOC(=O)c1ccc(NP(C)(=O)Oc2ccc(Cl)cc2)cc1 (stereo not given),inactive: -2.76%
9,CP(=O)(OC12CC3CC(CC(C3)C1)C2)OC12CC3CC(CC(C3)C1)C2,inactive: 6.42%
10,O=[N+]([O-])c1ccc(OP2(=O)COCCO2)cc1 (stereo not given),inactive: 1.39%
11,Cc1cc(-c2cccc3ccccc23)c(C)cn1.O=[N+]([O-])c1cc([N+](=O)[O-])c(O)c([N+](=O)[O-])c1,inactive: 10.5%
12,O=[N+]([O-])c1cc([N+](=O)[O-])c(NCC2CCS(=O)(=O)C2)c([N+](=O)[O-])c1 (stereo not given),inactive: 1.4%
13,Cc1c(C(c2ccc3c(c2)OCO3)c2c(C)n(C)n(-c3ccccc3)c2=O)c(=O)n(-c2ccccc2)n1C.O=[N+]([O-])c1cc([N+](=O)[O-])c(O)c([N+](=O)[O-])c1,inactive: -4.97%
14,COc1ccc(OP(C)(=O)Nc2cccc(Br)c2)cc1 (stereo not given),inactive: 14.4%
15,CN(C)CCOC(=O)C(O)(c1ccccc1)C1CCCCC1 (stereo not given),inactive: 18.5%
16,COc1ccc(NP(C)(=O)Oc2ccccc2OC)cc1 (stereo not given),inactive: 5.76%
17,Cc1ccccc1NP(C)(=O)Nc1ccccc1C,inactive: 17.6%
18,CP(=O)(Nc1ccc(SC(F)(F)F)cc1)Oc1ccc(F)cc1 (stereo not given),inactive: -2.39%
19,O=C(OC1CN2CCC1CC2)c1ccc([N+](=O)[O-])cc1 (stereo not given),inactive: 24.4%
20,O=C(OCCN1CCN(CCOCc2ccccc2)CC1)C(O)(c1ccccc1)c1ccccc1,inactive: -3.79%
21,COc1ccc2c(c1O)-c1c(O)c(OC)cc3c1[C@H](C2)[N+](C)(C)CC3.O=[N+]([O-])c1cc([N+](=O)[O-])c([O-])c([N+](=O)[O-])c1[O-],inactive: -5.44%
22,O=[N+]([O-])c1cc([N+](=O)[O-])c(Nc2ccc(Cl)cc2)c([N+](=O)[O-])c1,inactive: -10.8%
23,CP(=O)(Nc1ccccc1F)Oc1ccccc1 (stereo not given),inactive: 7.47%
24,CC(C)c1ccc(OP(C)(=O)Nc2ccc(SC(F)(F)F)cc2)cc1 (stereo not given),inactive: -6.99%
25,Cc1c([N+](=O)[O-])cc([N+](=O)[O-])c(Br)c1[N+](=O)[O-],inactive: 1.71%
26,CP(=O)(Nc1ccccc1)Oc1ccc(F)cc1 (stereo not given),inactive: 4.26%
27,O=[N+]([O-])c1cc([N+](=O)[O-])c(OC2CCCCC2O)c([N+](=O)[O-])c1 (stereo not given),inactive: -10.2%
28,CCCCCOc1ccc(NP(C)(=O)Oc2ccc(Cl)cc2Cl)cc1 (stereo not given),inactive: 9.01%
29,CCOC(=O)c1ccc(NP(C)(=O)Oc2ccc(F)cc2)cc1 (stereo not given),inactive: -2.5%
30,COc1ccc(OP(C)(=O)Nc2ccc(SC(F)(F)F)cc2)cc1 (stereo not given),inactive: -2.1%
